Assay results from paper doi:10.1101/2021.11.22.469547.

Target: TPI:HLA-DR1 on THP-1 cells (IFN-γ treated, pulsed with TPI peptide) (human (endogenous in THP-1) | not stated)
Assay: BFP adhesion frequency assay

effective 2D affinity AcKa: 4.57e-06 μm^4
fold of the affinity of CD4 for E8 TCR-engaged pMHC over that for free pMHC: 1820 fold
Substance: wild-type (WT) CD4 ectodomain, biotinylated (from UniProt P01730 26-396) (domain or fragment)
